From patent publication US9458110B2, “Phenylpyrazole derivatives as potent ROCK1 and ROCK2 inhibitors” (BRISTOL-MYERS SQUIBB COMPANY, priority 2013, dated 2016)

Chains of the proteins cited; added tags and fusions are not shown.
UniProt O75116, whole entry, species assumed: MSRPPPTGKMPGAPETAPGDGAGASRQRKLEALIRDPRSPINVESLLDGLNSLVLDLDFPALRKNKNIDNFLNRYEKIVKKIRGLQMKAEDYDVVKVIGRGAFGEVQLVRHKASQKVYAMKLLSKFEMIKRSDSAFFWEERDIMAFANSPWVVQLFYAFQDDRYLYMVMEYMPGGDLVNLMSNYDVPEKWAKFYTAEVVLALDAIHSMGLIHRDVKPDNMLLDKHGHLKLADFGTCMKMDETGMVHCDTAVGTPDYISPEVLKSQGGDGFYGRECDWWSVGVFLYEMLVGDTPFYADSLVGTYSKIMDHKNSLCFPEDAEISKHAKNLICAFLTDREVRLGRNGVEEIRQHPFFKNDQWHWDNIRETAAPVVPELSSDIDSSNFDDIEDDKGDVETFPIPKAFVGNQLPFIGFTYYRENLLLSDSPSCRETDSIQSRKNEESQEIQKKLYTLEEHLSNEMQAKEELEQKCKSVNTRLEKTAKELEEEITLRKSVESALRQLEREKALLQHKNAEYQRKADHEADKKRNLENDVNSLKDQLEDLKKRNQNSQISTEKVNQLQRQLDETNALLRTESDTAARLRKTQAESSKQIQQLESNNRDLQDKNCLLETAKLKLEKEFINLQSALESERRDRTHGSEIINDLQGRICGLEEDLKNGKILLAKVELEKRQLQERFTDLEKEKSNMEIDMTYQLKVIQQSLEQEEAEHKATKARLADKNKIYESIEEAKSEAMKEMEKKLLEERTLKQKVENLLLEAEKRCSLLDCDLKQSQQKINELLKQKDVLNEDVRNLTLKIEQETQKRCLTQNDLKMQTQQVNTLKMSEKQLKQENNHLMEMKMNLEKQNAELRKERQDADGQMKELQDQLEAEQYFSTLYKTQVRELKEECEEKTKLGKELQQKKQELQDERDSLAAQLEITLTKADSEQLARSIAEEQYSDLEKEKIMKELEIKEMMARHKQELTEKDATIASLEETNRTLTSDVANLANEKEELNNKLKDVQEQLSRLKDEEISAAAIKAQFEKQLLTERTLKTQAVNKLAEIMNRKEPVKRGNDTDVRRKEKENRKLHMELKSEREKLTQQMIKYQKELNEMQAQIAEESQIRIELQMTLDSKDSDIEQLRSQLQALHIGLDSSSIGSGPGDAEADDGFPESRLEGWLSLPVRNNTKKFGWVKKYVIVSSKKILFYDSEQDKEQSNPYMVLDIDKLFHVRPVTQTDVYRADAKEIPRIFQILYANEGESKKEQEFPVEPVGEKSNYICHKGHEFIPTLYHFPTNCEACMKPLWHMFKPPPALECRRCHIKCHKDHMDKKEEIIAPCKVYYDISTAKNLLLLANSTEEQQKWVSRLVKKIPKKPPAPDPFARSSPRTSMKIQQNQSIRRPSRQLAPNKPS
UniProt Q13464, whole entry, species assumed: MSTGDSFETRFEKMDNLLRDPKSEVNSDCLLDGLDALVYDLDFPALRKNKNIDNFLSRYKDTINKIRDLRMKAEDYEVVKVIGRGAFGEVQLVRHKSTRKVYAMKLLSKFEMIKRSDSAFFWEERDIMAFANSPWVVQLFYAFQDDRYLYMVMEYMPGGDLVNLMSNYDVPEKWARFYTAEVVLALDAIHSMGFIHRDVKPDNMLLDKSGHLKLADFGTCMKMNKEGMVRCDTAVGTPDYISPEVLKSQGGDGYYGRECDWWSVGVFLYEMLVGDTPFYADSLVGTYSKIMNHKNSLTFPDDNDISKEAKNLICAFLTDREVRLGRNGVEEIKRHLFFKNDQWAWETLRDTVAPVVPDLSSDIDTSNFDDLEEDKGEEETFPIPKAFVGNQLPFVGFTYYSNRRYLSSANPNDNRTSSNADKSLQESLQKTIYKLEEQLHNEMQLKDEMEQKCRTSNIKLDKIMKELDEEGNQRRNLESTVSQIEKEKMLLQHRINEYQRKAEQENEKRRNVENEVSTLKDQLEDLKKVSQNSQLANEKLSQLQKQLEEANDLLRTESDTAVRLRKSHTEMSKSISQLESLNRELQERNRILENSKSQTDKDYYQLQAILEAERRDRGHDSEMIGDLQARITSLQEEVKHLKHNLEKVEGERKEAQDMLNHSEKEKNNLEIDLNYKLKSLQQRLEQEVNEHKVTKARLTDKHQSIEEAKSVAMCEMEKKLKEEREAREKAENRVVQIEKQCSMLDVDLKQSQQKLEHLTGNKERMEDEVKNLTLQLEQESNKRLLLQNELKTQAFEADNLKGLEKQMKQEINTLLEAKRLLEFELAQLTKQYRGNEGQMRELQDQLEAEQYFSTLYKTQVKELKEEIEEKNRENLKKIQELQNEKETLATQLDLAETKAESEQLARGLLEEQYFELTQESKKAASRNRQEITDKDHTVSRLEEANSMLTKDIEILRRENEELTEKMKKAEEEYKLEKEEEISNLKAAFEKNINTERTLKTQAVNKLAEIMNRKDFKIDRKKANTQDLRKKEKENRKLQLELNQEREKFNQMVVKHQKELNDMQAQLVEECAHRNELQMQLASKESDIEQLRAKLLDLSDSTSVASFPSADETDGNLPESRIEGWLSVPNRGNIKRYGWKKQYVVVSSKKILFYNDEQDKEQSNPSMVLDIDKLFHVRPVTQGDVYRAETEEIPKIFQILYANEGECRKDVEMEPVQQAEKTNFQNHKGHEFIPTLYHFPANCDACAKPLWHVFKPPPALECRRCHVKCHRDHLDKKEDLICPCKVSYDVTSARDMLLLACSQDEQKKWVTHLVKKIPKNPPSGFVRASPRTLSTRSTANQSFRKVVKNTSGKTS

biological target: ROCK2 (Homo sapiens (Human), UniProt O75116); experiment: ROCK assay (Caliper LABCHIP peptide phosphorylation), ROCK2; assay type: biochemical; details: 5 μM ATP, 1.5 μM peptide substrate;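 note: reaction stopped with EDTA, then phosphorylated and unphosphorylated peptide resolved by microfluidic electrophoresis, kinase inhibition computed at each compound concentration in dose-response series, DMSO under 2%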

Row | IC50 [nM] | SMILES
1 | 36 | COc1cc(C(=O)NC(CNC(=O)OC(C)(C)C)c2ccccc2)ccc1-c1cn[nH]c1 (stereo not shown) [Example 11, tert-butyl (2-(3-methoxy-4-(1H-pyrazol-4-yl)benzamido)-2-phenylethyl) carbamate]
2 | 9.29 | COc1cc(C(=O)NC(C)c2cc(F)cc(F)c2)ccc1-c1cn[nH]c1 (racemic) [Example 67, (+/−)-N-(1-(3,5-difluorophenyl)ethyl)-3-methoxy-4-(1H-pyrazol-4-yl)benzamide]
3 | 21.2 | COc1cc(C(=O)NC(C)Cc2ccc(F)cc2)ccc1-c1cn[nH]c1 (stereo not shown) [Example 111, N-[1-(4-fluorophenyl)propan-2-yl]-3-methoxy-4-(1H-pyrazol-4-yl)benzamide]

Row | SMILES | IC50 [nM]
4 | CC(O)c1cc(C(=O)N[C@H](C)c2ccc(F)cc2)ccc1-c1cn[nH]c1 (stereo partly drawn) [Example 268, N-((R)-1-(4-Fluorophenyl)ethyl)-3-(1-hydroxyethyl)-4-(1H-pyrazol-4-yl)benzamide] | 48.1

biological target: ROCK1 (Homo sapiens (Human), UniProt Q13464); experiment: ROCK assay (Caliper LABCHIP peptide phosphorylation), ROCK1; assay type: biochemical; details: 5 μM ATP, 1.5 μM peptide substrate;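 note: Read-out is separation of phosphorylated from unphosphorylated peptide, with kinase activity inhibition computed at every concentration of a dose-response series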

Row | SMILES | IC50 [nM]
5 | CC(O)c1cc(C(=O)N[C@H](C)c2ccc(F)cc2)ccc1-c1cn[nH]c1 (stereo partly drawn) [Example 268, N-((R)-1-(4-Fluorophenyl)ethyl)-3-(1-hydroxyethyl)-4-(1H-pyrazol-4-yl)benzamide] | 181
6 | CC(O)c1cc(C(=O)N[C@H](C)c2ccc(F)cc2)ccc1-c1cn[nH]c1 (single isomer, unassigned) [Example 270] | > 2000
7 | C[C@@H](NC(=O)c1cc(F)c(-c2cn[nH]c2)cc1OCCN(C)C)c1ccccc1 [Example 310, 2-[2-(dimethylamino)ethoxy]-5-fluoro-N-[(1R)-1-phenylethyl]-4-(1H-pyrazol-4-yl)benzamide] | 1110
